These are literature values, as cited in patent publication US20190192060A1, “DEVICE AND METHOD FOR BLOOD VOLUME MEASUREMENT” (Oregon Health & Science University, priority 2017, published 2019).

The conditions of this data set: in vivo; cited from earlier work.

“^131I-HSA: radiolabeled human serum albumin, blood volume indicator of the Daxor BVA-100, marketed as Volumex”: the “time remaining in circulation” value is 18 to 28 h.
